Data published in PubChem BioAssay AID2549 (National Center for Advancing Translational Sciences (NCATS), 2010).
This is a selection; strong and weak results do not stand in their true shares. Some salts and complexes are drawn in separate pieces, as the source files them; their charges need not balance. Active and inactive are the calls of the source. The call rests on the fitted dose curve; in most records, active means well fitted inhibition curve with a large enough effect; inconclusive means small, poorly fitted or top-dose-only effect; inactive means flat fitted curve, though single readings scatter.

Chains of the proteins cited; added tags and fusions are not shown.
UniProt P46063, whole entry: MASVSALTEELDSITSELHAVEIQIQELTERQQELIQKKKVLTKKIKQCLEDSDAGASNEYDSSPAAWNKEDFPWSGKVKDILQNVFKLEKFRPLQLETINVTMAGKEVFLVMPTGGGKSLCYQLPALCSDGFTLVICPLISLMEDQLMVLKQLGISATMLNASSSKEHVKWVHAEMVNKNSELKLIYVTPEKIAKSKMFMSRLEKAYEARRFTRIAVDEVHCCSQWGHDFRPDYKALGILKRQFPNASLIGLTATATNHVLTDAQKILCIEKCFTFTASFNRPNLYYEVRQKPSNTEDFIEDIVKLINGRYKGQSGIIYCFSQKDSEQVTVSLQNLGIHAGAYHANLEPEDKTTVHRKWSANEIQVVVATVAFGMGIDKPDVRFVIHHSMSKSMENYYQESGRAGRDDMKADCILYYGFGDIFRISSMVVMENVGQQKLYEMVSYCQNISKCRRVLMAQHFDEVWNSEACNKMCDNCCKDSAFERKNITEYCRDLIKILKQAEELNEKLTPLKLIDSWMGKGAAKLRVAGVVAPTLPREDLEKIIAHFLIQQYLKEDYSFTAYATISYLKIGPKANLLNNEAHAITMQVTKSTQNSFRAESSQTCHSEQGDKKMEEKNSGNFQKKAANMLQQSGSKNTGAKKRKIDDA

Target: ATP-dependent DNA helicase Q1 (Homo sapiens) (UniProt P46063)
Assay: qHTS Assay for Inhibitors of RecQ-Like Dna Helicase 1 (RECQ1); further: nearly all actives have a fitted effect of over 30% in size;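 on activity, negative = inhibition: plate controls were vehicle for no effect and no enzyme for full effect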
Details: RECQ1 DNA unwinding, red fluorescence kinetic read; activity, negative = inhibition: at 57.3 µM (top of the series)
From the text: Survival of cells and the faithful propagation of the genome depend on elaborate mechanisms of detecting and repairing DNA damage. Treatment of advanced cancer relies on radiation therapy or chemotherapy, which kill cancer cells by causing extensive DNA damage. It is often found, that cancer cells develop resistance to therapy through enhanced activity of DNA repair functions; this has led to an increased interest in developing drugs that interfere with DNA repair, which could sensitize cancer cells to conventional therapy.
This validation qHTS assay pertains to human RECQ1, which is important in resolving abnormal DNA structures formed during replication or homologous recombination. Shutting down the expression of RECQ1 leads to chromosomal instability and higher radiation sensitivity in cultured cells.
The validation assay was a fluorescence quenching based kinetic qHTS for RECQ1 Helicase DNA unwinding. The activity was measured as ATP-dependent separation of a 20-bp DNA duplex extended by 30-nt single-stranded tails (forked duplex). The forked DNA substrate was tagged with rhodamine fluorophore (carboxytetramethyl rhodamine, TAMRA) and BHQ-2 (Black Hole Quencher 2) dark quencher. Strand separation results in an increase in the fluorescence of TAMRA (excitation 525 nm, emission 598 nm). This substrate construct operates in a red-shifted region where very few compound library members have been noted to fluoresce (PubChem AIDs 593 and 594). An additional feature of the assay is the inclusion of 2.5 ug/ml poly (dIdC), to reduce interference by compounds such as DNA intercalators, a major source of false inhibitors.
Opher Gileadi, Structural Genomics Consortium, University of Oxford
Screening Center PI: Austin, C.P.
Screening Center: NIH Chemical Genomics Center [NCGC]
Three uL of reaction buffer (25 mM Tris-HCl (pH 8.0), 5 mM NaCl, 2 mM MgCl2, 1mM DTT, 0.01% Tween- 20, and 2.5 ug/ml poly(dI-dC), including enzyme (50 nM RECQ1T1), were dispensed into a 1536-well Greiner black assay plate via solenoid-valve based nanoliter dispensers. Compounds (23 nl each in columns 5-48) and control (23 nl each in column 2 as dose-response) were transferred via a Kalypsys pintool equipped with a 1536-pin array. The plates were incubated for 15 min at room temperature, and then 1 ul of substrates (200 nM DNA and 2 mM ATP, final concentrations) was added to start the reaction. The plate was transferred into a ViewLux high-throughput CCD imager where the reaction progress was measured in a discontinuous kinetic mode (two reads spaced 2 hours apart, with intermediate room temperature incubation of the covered assay plate) by using standard red-fluorescence optics (excitation filter 525 nm, emission filter 598 nm). Enzyme-free and vehicle (DMSO) controls were included for signal normalization.

| SMILES | activity, negative = inhibition |
| --- | --- |
| Fc1ccccc1NC1CCN(Cc2ccccc2)CC1 | inactive: -10.8% |
| CCN1CCC(Nc2cccc(F)c2)CC1 | inactive: -16% |
| CN(C)c1ccc(C(=O)NCC2(N3CCCCC3)CCCCC2)cc1 | inactive: -1.94% |
| CCOc1ncccc1C(=O)NCC1(N2CCOCC2)CCCCC1 | inactive |
| CC(C)(C)OC(=O)N1CCC(Nc2ccccc2)CC1 | inactive |
| CCC(CO)(C(=O)OC1CN2CCC1CC2)c1ccccc1 (stereo unspecified) | inactive: -2.76% |
| COc1cc(OC)cc(C(=O)NCC2(N3CCOCC3)CCCCC2)c1 | inactive |
| CCCOc1ccc(C)cc1CN(CCCl)CCCl | inactive: 5.87% |
| COc1ccc(C(=O)NCC2(N3CCOCC3)CCCCC2)cc1OC | inactive |
| N/C(=N\O)c1c(N)no[n+]1[O-] | inactive: -0.379% |
| O=C(O)c1cccc(Nc2c([N+](=O)[O-])cc([N+](=O)[O-])cc2[N+](=O)[O-])c1 | inactive |
| O=C(OC1CN2CCC1CC2)C1c2ccccc2C=Cc2ccccc21 (stereo unspecified) | inactive: -2.51% |
| N#Cc1ccc(C(=O)NCC2(N3CCCCC3)CCCCC2)cc1 | inactive: -12.2% |
| CCOC(=O)C(CC)C1=NC(C)(C)Cc2ccccc21.O=[N+]([O-])c1cc([N+](=O)[O-])c(O)c([N+](=O)[O-])c1 (stereo unspecified) | inactive |
| c1ccc(CN2CCC(Nc3ccccc3)CC2)cc1 | inactive |
| ClCCOP(OCCCl)OCCCl | inactive: -0.523% |
| O=C(NCC1(N2CCCCC2)CCCCC1)c1cccc([N+](=O)[O-])c1 | inactive |
| N#CC1(Nc2ccccc2)CCN(CCc2ccccc2)CC1 | inactive: -1.59% |

| SMILES | activity, negative = inhibition |
| --- | --- |
| O=[N+]([O-])c1cc([N+](=O)[O-])c(NCC2CCS(=O)(=O)C2)c([N+](=O)[O-])c1 (stereo unspecified) | inactive: -8.23% |
| CN1CCN(CCOC(=O)C(O)(c2ccccc2)c2ccccc2)CC1 | inactive: -0.114% |
| COc1ccc(NC2CCN(C(=O)OC(C)(C)C)CC2)cc1 | inactive: -4.95% |
| O=C(NCC1(N2CCOCC2)CCCCC1)c1cc(=O)[nH]c2ccccc12 | inactive |
| CN(C)c1cccc(C(=O)NCC2(N3CCCCC3)CCCCC2)c1 | inactive: -0.464% |
| COc1ccc(CN(CCCl)CCCl)cc1Cl | inactive: -9.89% |
| CC(C)c1ccc(NC2CCN(C(=O)OC(C)(C)C)CC2)cc1 | inactive: -20% |
| CCOP(=O)(Cl)Cl | inactive: -2.87% |
| COc1ccc2c(c1O)-c1c(O)c(OC)cc3c1[C@H](C2)[N+](C)(C)CC3.O=[N+]([O-])c1cc([N+](=O)[O-])c([O-])c([N+](=O)[O-])c1[O-] | inactive |
| O=C(OC1CN2CCC1CC2)c1ccc([N+](=O)[O-])cc1 (stereo unspecified) | inactive: 8.82% |
| COc1ccc(C(=O)NCC2(N3CCCCC3)CCCCC2)c(OC)c1OC | inactive |
| O=C(NCC1(N2CCOCC2)CCCCC1)c1cc2ccccc2o1 | inactive |
| CCOC(=O)N1CCC(Nc2ccc(OC)cc2)CC1 | inactive |
| O=C(OC1CN2CCC1CC2)C1c2ccccc2Oc2ccccc21 (stereo unspecified) | inactive: -4.02% |
| N#CC1(Nc2ccccc2)CCN(Cc2ccccc2)CC1 | inactive: -5.12% |
| CCOc1ccc(C)cc1CN(CCCl)CCCl | inactive: 9.15% |
| COc1ccc(NC2CCN(CCc3ccccc3)CC2)c(OC)c1 | inactive: -3.4% |
| Cc1ccc(OCC(C)C)c(CN(CCCl)CCCl)c1 | inactive: -1.23% |
